Values quoted from earlier work, collected in publication PMC9441481, “Risk assessment and molecular mechanism study of drug-drug interactions between rivaroxaban and tyrosine kinase inhibitors mediated by CYP2J2/3A4 and BCRP/P-gp” (Frontiers in Pharmacology, 2022).

Settings: clinical oral dose of 50 mg/d; ref Di Gion et al., 2011; cited from earlier work

In the case of CCN(CC)CCNC(=O)c1c(C)[nH]c(/C=C2\C(=O)Nc3ccc(F)cc32)c1C [Sunitinib], the maximum plasma concentration is given as “approximately 70 nM”.
